# Apparent affinities of Ab-14 variants for a coronavirus HR2 peptide

Target: peptide PDVDLGDISGINAS, taken from heptad repeat 2 (HR2) of SARS-CoV-2 spike.

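Phage display of a naive human antibody library on the peptide gave the parent. This is the validation round: designs drawn from the data on random variants, tested in the same kind of assay. Several design methods are mixed in this list. The scFvs were displayed on barcoded MATa yeast, the peptide on MATalpha yeast. Binding brings cells together so that they mate, and sequencing counts the barcode pairs among the diploids. A regression on co-assayed BCL2-family reference pairs converts the normalised counts of each replicate to an apparent Kd. Each pool was mated in six replicate cultures.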

Parent: Ab-14, a human scFv built as VH, a (GGGGS)3 linker, VL. Only the CDRs of the light chain vary.
VH: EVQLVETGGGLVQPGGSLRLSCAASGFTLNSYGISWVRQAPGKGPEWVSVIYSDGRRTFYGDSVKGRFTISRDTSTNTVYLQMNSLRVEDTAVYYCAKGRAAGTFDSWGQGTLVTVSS
VL: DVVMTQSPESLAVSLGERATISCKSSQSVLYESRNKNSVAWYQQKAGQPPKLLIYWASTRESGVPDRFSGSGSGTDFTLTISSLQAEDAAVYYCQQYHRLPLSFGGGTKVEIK

The parent's light chain CDRs are KSSQSVLYESRNKNSVA, WASTRES, QQYHRLPLS; each variant's own CDRs replace them letter for letter.
This list holds designs with more than six substitutions.
Values are apparent Kd, the geometric mean of the replicates that gave a signal; lower means stronger binding.
Where no diploid with the target was found in any replicate, the entry reads "nd": below detection, most likely a poor binder, though not proof of it.
The range of this assay differs from that of the first round, and the authors advise against merging the two.
As a blank, each scFv also met three strains without target: over all light chain designs, 4% of these pairings were detected, typically at 430 nM and seldom below 38 nM.
The authors' rule: three or more of the six replicates give a measured affinity, fewer mean a poor binder.

* KLQQGVEMESRNKNSVA / NASKREE / QQYHRLPLS = 860 pM (6 of 6 replicates)
* TLYGLSNSMSINKDSVA / EMTTREE / QQYDRLPLM = 290 nM (6 of 6 replicates)
* MISTLTMYGSRNKNSVA / DLSTRGS / QQYHRLPLS = 1.5 nM (6 of 6 replicates)
* KFSQMSNSMSVSKSAVA / EMSTRPE / QQYNRLPLA = 700 pM (6 of 6 replicates)
* QIAMEMYHGLNDNQNIA / DAMTYEK / QQYSRLPLF = nd (0 of 6 replicates)
* QLRDAQWAEGMNKQSIA / ENEVSKD / QQYNRLPLS = 31 nM (3 of 6 replicates)
* KLQAQDEYWSRNKNSVA / QASTRED / QQYHRLPLS = 710 pM (6 of 6 replicates)
* KLSKMVMMGSRNKNSVA / SASTREE / QQYHRLPLS = 1.5 nM (6 of 6 replicates)
* MISQVLNTLTRTGNNVA / DLQERET / QQYFRLPLS = 11 nM (6 of 6 replicates)
* KLSQVTGHLSVEKNNVA / EMETREN / QQYDRLPLS = 69 nM (5 of 6 replicates)
* KIGMTLNQLMHQKNNVA / DLVMREQ / QQYHRLPLS = 7.1 nM (6 of 6 replicates)
* QLGMTLKELSKVTNNVA / EMTTRGN / QQYYRLPLS = 3.8 nM (6 of 6 replicates)
* QLYAVQDMTSKNSNNVA / EQNTREN / QQYHRLPLS = 58 nM (6 of 6 replicates)
* SVTNETDGNGLKWNSVA / DAAEAMT / QQYFRLPLT = 15 nM (5 of 6 replicates)
* HLYQSELYESRMKNSVA / NASTRSS / QQYHRLPLS = 1.4 nM (6 of 6 replicates)
* KISMMVGTKGGARNSVA / NEETRYD / QQYHRLPLS = 760 pM (6 of 6 replicates)
* MISEMMHMIGAKKNSIA / DLVLRAN / QQYHRLPLS = 14 nM (2 of 6 replicates)
* KLSMSYRYESENKNSIA / ELVTRVS / QQYHRLPLS = 9.4 nM (6 of 6 replicates)
* KLQSLELYESRWKNSVA / SASTRES / QQYHRLPLS = 4.9 nM (6 of 6 replicates)
* KISQMVRVGSTVSNSIA / EMVTRVK / QQYHRLPLA = 43 nM (2 of 6 replicates)
* HMNHEFYGYWNYDQAVA / HESQRLY / QQYSRLPLS = 180 nM (6 of 6 replicates)
* KIGMTLNQLYEKQNNVA / DLVEREN / QQYHRLPLS = 3.8 nM (6 of 6 replicates)
* HITMGMYVHGRHHSSIA / QAETRAK / QQYDRLPLI = 28 nM (1 of 6 replicates)
* RLNVFQNVSTQGNNNIA / QAEQKVH / QQYMRLPLY = 22 nM (6 of 6 replicates)
* KLSDPTREWIANQNAVA / EDADTVH / QQYARLPLT = 180 nM (1 of 6 replicates)
* HISDLIMVAYRNKNSVA / DESTRPD / QQYHRLPLS = 2.5 nM (6 of 6 replicates)
* MMSQVTGMESRQINNVA / QTSTREQ / QQYDRLPLI = 5.1 nM (6 of 6 replicates)
* KIYAATMLESHDKNSIA / DLNTRGN / QQYHRLPLS = 2.0 nM (6 of 6 replicates)
* KLNQDPVLKTNINNNVA / EHTEVFQ / QQYAHLPLQ = nd (0 of 6 replicates)
* KFSYVKEMVNTDKESIA / DAHTVQM / QQYSRLPLA = 11 nM (6 of 6 replicates)
* KVSEFMRGLMKMQDSIA / DNVTRNN / QQYDRLPLS = 360 nM (4 of 6 replicates)
* KIGMTLNQLMHQKNNVA / DLVTREN / QQYGRLPLS = 9.6 nM (6 of 6 replicates)
* MIGEFLMQGQYKKNSVA / QANLRAE / QHYHRLPLE = 9.4 nM (6 of 6 replicates)
* KMSQSVDYEDRNCNAVA / AASQREE / QQYHRLPLS = 1.1 nM (6 of 6 replicates)
* TLGQSTMVESYNKNSVA / QAETREE / QDYHRLPLS = 610 nM (2 of 6 replicates)
* TLGASTLEESRNKNSVA / EMSLREA / QSYNRLPLS = 2.1 nM (6 of 6 replicates)
* AIDSHGLGTQEYYNSIA / EEHVKVR / QQYDKLPLS = 34 nM (5 of 6 replicates)
* ALRQKGFELHGDRQSIA / HSDTRAA / QQYSMLPLA = 2.0 nM (6 of 6 replicates)
* VMFMGLYWQNDEHQAIA / NVTMREK / QQYHRLPLQ = nd (0 of 6 replicates)
* KLMQEQEYQSRNPNSVA / HASERES / QQYHRLPLS = 440 pM (6 of 6 replicates)
* TFSQSVLYESVHKNNVA / QTSTREE / QQYDHLPLS = 880 pM (6 of 6 replicates)
* QIMEEQSMRTEGNWNIA / QGEQKVH / QQYNRLPLA = 75 nM (2 of 6 replicates)
* KMSQSVLMGGRNDNSVA / EASTRED / QQYHRLPLS = 970 pM (6 of 6 replicates)
* RLRFQDLGWSYDANNIA / GATNSIK / QQYGRLPLT = 1.9 nM (6 of 6 replicates)
* KIQPHLSQSFASKNNVA / DRVLSAE / QQYNRLPLV = 610 pM (6 of 6 replicates)
* NLQLQPRDGAQAQSSIA / DVSEADM / QQYARLPLH = 150 nM (6 of 6 replicates)
* MISQLYNMGSFAINSVA / QASQRCE / QQYDRLPLL = 65 nM (6 of 6 replicates)
* TISQSMHQESHNKNSVA / DLNVRGS / QQYDRLPLS = 1.6 nM (6 of 6 replicates)
* HLSKPWELGHPSTNAVA / NNDVAMA / QQYSRLPLS = 1.4 nM (6 of 6 replicates)
* KFSGEMLYESRNKNSVA / HASLRES / QDYHRLPLQ = 1.2 nM (6 of 6 replicates)
* TLYGLTNSMSKNKDNVA / EMTTREA / QQYDRLPLV = 430 pM (6 of 6 replicates)
* NITQQGDNMGDQRANVA / NGETLFH / QQYARLPLL = 2.3 nM (6 of 6 replicates)

The last 3 entries again:

CDR-L1,CDR-L2,CDR-L3,Kd,detected
KFSGEMLYESRNKNSVA,HASLRES,QDYHRLPLQ,1.2 nM,6 of 6
TLYGLTNSMSKNKDNVA,EMTTREA,QQYDRLPLV,430 pM,6 of 6
NITQQGDNMGDQRANVA,NGETLFH,QQYARLPLL,2.3 nM,6 of 6

Reference: Li et al. 2023, doi:10.1038/s41467-023-39022-2. File: FLAb, binding data.